# This is a selection; strong and weak results do not stand in their true shares. Calls of active or inactive are those of the source.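 Rule for the calls: active = activation above a set limit, based on mean plus 3 SD of controls (cut at about 140% in these data); inconclusive = one replicate above the limit, the other below; inactive = the rest.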
# Assay: APP 5'UTR reporter signal increase – luciferase, SH-SY5Y cells, primary screen (AID 1276)
# Conditions: SH-SY5Y APP 5'UTR luciferase reporter, luminescence; at 2 µM; active compounds read high; zero percent = DMSO vehicle wells
row,SMILES,activation
1,O=[N+]([O-])c1ncn(CCn2ncnc2[N+](=O)[O-])n1,inactive: -20.7%
2,CN(C)C(=O)OCCc1n(C)cc[n+]1C,inactive: 6.47%
3,CC1CCN(C(=O)Oc2c(Cl)cc(Cl)c3cccnc23)CC1,inactive: 6.58%
4,CCN(/C(=N/P(=O)(N1CCOCC1)N1CCOCC1)N1CCOCC1)c1ccc(OC)cc1,inactive: -2.92%
5,O=[N+]([O-])c1cccc2n[nH]nc12,inactive: 5.45%
6,CC(=O)N1C2C3N(C(C)=O)C1C1N(C(C)=O)C(C(N1C(C)=O)N3C(C)=O)N2C(C)=O,inactive: 8.84%
7,Cc1ccc(NP(=O)(Oc2ccccc2)Oc2ccccc2)nc1,inactive: 14.2%
8,CCc1nc2c(n1)c1c(non1O)c1c2no[n+]1[O-],inactive: -3.72%
9,O=[N+]([O-])c1cc([N+](=O)[O-])c(CCNc2ccccc2)c([N+](=O)[O-])c1,inactive: -19.1%
10,COc1ccc(C2=NCC(CBr)S2)cc1 (centres undefined),inactive: 10.2%
11,CC(C)CC(=O)NC(Sc1ccc(Cl)cc1)C(Cl)(Cl)Cl (centres undefined),inactive: 10.5%
12,Oc1ccccc1CNc1ccccn1,inactive: 9.96%
13,Cc1c2non([O-])c-2c(C)[n+](=O)[n+]1[O-],inactive: -2.5%
14,O=C(NC(Sc1ccncn1)C(Cl)(Cl)Cl)c1ccccc1 (centres undefined),inactive: 20.7%
15,COc1ccccc1OP(=O)(Nc1ccc(C)cn1)Oc1ccccc1OC,inactive: -6.98%
16,Clc1ccc(Cl)c(NC2=NCC(CBr)S2)c1 (centres undefined),inactive: 4.38%
17,CN1CCCC(OC(=O)C(c2ccccc2)c2ccccc2)C1 (centres undefined),inactive: -8.01%
18,NC(=O)c1cc([N+](=O)[O-])cc([N+](=O)[O-])c1N,inactive: 9.56%
19,Cc1ccc(N/C(=N/P(=O)(N2CCOCC2)N2CCOCC2)N2CCOCC2)cc1,inactive: -3.63%
20,CCN(N=Nc1nonc1N)c1nonc1N,inactive: -4.24%
21,CCOP(=O)(Nc1ccccc1)OCC,inactive: 4.34%
22,Cc1cc(SC(NC(=O)c2ccc(F)cc2)C(Cl)(Cl)Cl)ncn1 (centres undefined),inactive: 5.61%
23,O=c1c2cc([N+](=O)[O-])ccc2[nH]c2c([N+](=O)[O-])cc([N+](=O)[O-])cc12,inactive: -80.5%
24,COC(=O)c1cc2c(s1)N=C(c1ccccc1)N(C)P2(=O)N1CCOCC1 (centres undefined),inactive: -8.55%
25,Cc1ccc(OP(=O)(Nc2ccccn2)Oc2ccc(C)cc2)cc1,inactive: 24.1%
26,CC(=O)NC(SC(=S)N(CC(C)C)CC(C)C)C(Cl)(Cl)Cl (centres undefined),inactive: 3.25%
27,CCC(=O)N1C2C3N(C(=O)CC)C1C1N(C(=O)CC)C(C(N1C(=O)CC)N3C(=O)CC)N2C(=O)CC,inactive: -0.91%

row,SMILES,activation
1,CCNC(=S)/N=C(\N)N[N+](=O)[O-],inactive: 5.37%
2,O=C(NC1CCS(=O)(=O)C1)NP(=S)(Oc1ccccc1)Oc1ccccc1 (centres undefined),inactive: -22.4%
3,c1ccc(-c2nn[nH]n2)c(-c2nn[nH]n2)c1,inactive: 22.6%
4,CCOC(=O)NC(Sc1ccccc1)C(Cl)(Cl)Cl (centres undefined),inactive: -8.91%
5,CC(=O)Nc1ccc(Oc2c([N+](=O)[O-])cc([N+](=O)[O-])cc2[N+](=O)[O-])cc1,inactive: 7.95%
6,CC(C)(C)C(=O)NC(Sc1ccccc1)C(Cl)(Cl)Cl (centres undefined),inactive: -5.06%
7,O=P1(Nc2nc3ccc(Cl)cc3s2)COc2ccccc2O1 (centres undefined),inactive: 4.33%
8,CCOc1ccc(C2=NCC(CBr)S2)cc1 (centres undefined),inactive: -29.6%
9,c1nnnn1CCn1cnnn1,inactive: 7.22%
10,CC(C)C(=O)NC(Sc1ccccc1)C(Cl)(Cl)Cl (centres undefined),inactive: 10.3%
11,O=P(Nc1nccs1)(c1ccccc1)c1ccccc1,inactive: 6.82%
12,C(Cc1nn[nH]n1)Cc1nn[nH]n1,inactive: 20.9%
13,O=C(OC1CN2CCC1CC2)c1cccc(Cl)c1 (centres undefined),inactive: 0.59%
14,CC(=O)NC(SC(=S)N(C)C)C(Cl)(Cl)Cl (centres undefined),inactive: 0.56%
15,O=P(Nc1ccccn1)(c1ccc(Br)cc1)c1ccc(Br)cc1,inactive: -11.7%
16,O=P1(Nc2ccc(Br)cn2)COc2ccccc2OC1,inactive: 10.9%
17,Cc1ccc(OCC(=O)OC2CN3CCC2CC3)cc1 (centres undefined),inactive: 7.05%
18,O=P1(Nc2ncccn2)COc2ccccc2OC1,inactive: -1.61%
19,CN(C)C1(CNC(=O)c2ccc(S(C)(=O)=O)cc2)CCCCC1,inactive: 13.6%
20,Cc1nn(-c2ccccc2)c2c1P(=O)(N1CCOCC1)N(C)C(c1ccccc1)=N2 (centres undefined),inactive: -1.51%
21,CC1CCC(C(C)C)C(OP(=O)(Nc2ccccn2)c2ccccc2)C1 (centres undefined),inactive: -11.1%
22,CC1(CBr)Cn2c(nc3ccccc3c2=O)S1 (centres undefined),inactive: -15.3%
23,CC(C)/C=N\N=C(\N)N[N+](=O)[O-],inactive: -10.9%
24,CN(C(=O)Cc1ccc(Cl)c(Cl)c1)[C@@H]1CCCC[C@H]1N1CCCC1,inactive: -1.71%
25,Clc1n[nH]nc1-c1nn[nH][15n]1,inactive: -2.38%
26,O=P1(Nc2ccccn2)COc2ccccc2OC1,inactive: 13.5%
27,COc1cc(C2NCCC3(OCCO3)C2(C)C)cc(OC)c1OC (centres undefined),inactive: -4.42%

row,SMILES,activation
1,CCOP(=O)(Nc1cccc2ccccc12)OCC,inactive: 2.88%
2,Cc1ccc(NCCc2c([N+](=O)[O-])cc([N+](=O)[O-])cc2[N+](=O)[O-])cc1,inactive: -17.5%
3,Cc1cccc(OCC(=O)OC2CN3CCC2CC3)c1 (centres undefined),inactive: 2.2%
4,COc1cc(C(=O)NCC2(N3CCOCC3)CCCCC2)cc(Cl)c1OC(C)C,inactive: 2.94%
5,O=[N+]([O-])c1ccc2c(c1)nnn2O,inactive: -3.01%
6,CCOP1(=S)c2c(C)nn(CCC#N)c2N=C(c2ccc(F)cc2)N1C (centres undefined),inactive: 3.45%
7,CCOP1(=S)c2c(C)nn(CCC#N)c2N=C(c2ccccc2F)N1C (centres undefined),inactive: -1.67%
8,O=P(Nc1nccs1)(c1ccccc1)c1nc2ccccc2s1 (centres undefined),inactive: -26.1%
9,O=P(Nc1nccs1)(Oc1ccccc1)Oc1ccccc1,inactive: 9.03%
10,CCN(CC)C(=S)SC(NC=O)C(Cl)(Cl)Cl (centres undefined),inactive: -1.15%
11,CC(C)NC(=O)NP(=O)(Oc1ccccc1)Oc1ccccc1,inactive: 7.36%
12,O=[N+]([O-])c1cc([N+](=O)[O-])c(-c2ccn[nH]2)s1,inactive: -7.75%
13,ClCCSc1nnc(-c2cccnc2)o1,inactive: 5.76%
14,Cc1ccc2nc3c(c(C)c2c1)CC(C(Cl)Cl)S3 (centres undefined),inactive: 21%
15,COc1ccc(N/C(=N/P(=O)(N2CCOCC2)N2CCOCC2)N2CCOCC2)cc1,inactive: 9%
16,COc1ccc2nc(NP(=O)(c3ccccc3)c3ccccc3)sc2c1,inactive: 26.9%
17,O=C(OC1CN2CCC1CC2)C12CC3CC(CC(C3)C1)C2 (centres undefined),inactive: -7.49%
18,Cc1cc(=O)[nH]c(N[N+](=O)[O-])n1,inactive: 2.32%
19,Cc1c2c(nc3ccccc13)SC(C(Cl)Cl)C2 (centres undefined),inactive: -10.2%
20,CCC(C)N(CC(C)C)C(=S)SC(NC(C)=O)C(Cl)(Cl)Cl (centres undefined),inactive: 3.47%
21,O=C(COc1ccccc1)OC1CN2CCC1CC2 (centres undefined),inactive: -7.12%
22,COP1(=S)c2c(C)nn(CCC#N)c2N=C(c2ccc(F)cc2)N1C (centres undefined),inactive: -19.2%
23,O=P(Nc1ccccn1)(c1cccc2ccccc12)c1cccc2ccccc12,inactive: 14.7%
24,Cc1cc(SC(NC=O)C(Cl)(Cl)Cl)ncn1 (centres undefined),inactive: 20.5%
25,Cc1cc(SC(NC(=O)c2ccccc2)C(Cl)(Cl)Cl)nc(C(C)C)n1 (centres undefined),inactive: -7.44%

# Reference: PubChem BioAssay AID1276 (Columbia University Molecular Screening Center, 2008)
